B1: human tyrosine hydroxylase isoform 1 (hTH1), nonphosphorylated (enzyme)
chain: not shown
B2: human tyrosine hydroxylase isoform 1 phosphorylated on Ser19 (TH-pS19), full stoichiometry (enzyme)
chain: not shown
modifications: phosphoserine at 19 (PRAK, full stoichiometry)
B3: human tyrosine hydroxylase isoform 1 phosphorylated on both Ser19 and Ser40 (TH-pS19pS40) (enzyme)
chain: not shown
modifications: phosphoserine at 19 (PRAK) and phosphoserine at 40 (PKA), full stoichiometry

Target: the molecule itself
Experiment: native MS
In the case of B1, the “stoichiometry N” value is reported as 4.
B2 was tested, and the “stoichiometry N” value was 4.
For B3, the “stoichiometry N” value was 4.

Reference: article PMC4125734 (Molecular & Cellular Proteomics : MCP, 2014)
